## Antibody variant affinities, Ab-95 light chain, assay 2

Target peptide (SARS-CoV-2 spike, HR2 region): PDVDLGDISGINAS

Parent: Ab-95, a human scFv built as VH, a (GGGGS)3 linker, VL. Only the CDRs of the light chain vary.
VH: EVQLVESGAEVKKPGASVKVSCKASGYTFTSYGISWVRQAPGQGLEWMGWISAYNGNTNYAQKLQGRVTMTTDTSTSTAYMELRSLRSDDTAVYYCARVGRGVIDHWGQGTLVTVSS
VL: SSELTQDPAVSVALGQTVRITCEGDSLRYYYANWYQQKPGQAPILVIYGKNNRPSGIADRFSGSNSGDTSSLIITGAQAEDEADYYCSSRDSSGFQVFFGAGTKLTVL

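The starting antibody came from a phage panning campaign against this peptide. AAYL52 was designed without a model: most single CDR substitutions and a random sample of double and triple ones. Affinity was read by AlphaSeq, a pooled yeast mating assay with surface-displayed partners. Pairs that bind mate more often; barcode pairs of the diploids are counted by sequencing. Read counts were normalised to the haploid input and turned into Kd by a linear fit to BCL2-family pairs of known affinity, for each replicate. The assay was run in three technical replicates.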

The parent's light chain CDRs are EGDSLRYYYAN, GKNNRPS, SSRDSSGFQVF; each variant's own CDRs replace them letter for letter. The Kd shown is the geometric mean over detected replicates; a lower Kd is a better binder. An entry "no signal" has no value in the source: the pair was not observed among the diploids in any replicate. This suggests poor binding but is not conclusive. For reference, the parent read 200 nM as the reference entry and 180 nM as a member of this library. Three control strains display no target. For library AAYL52, 28% of the pairings with them gave a signal, with a median of 8.2 µM and one signal in twenty below 800 nM, so weak values seen in few replicates may be background. For each scFv, signals with the empty controls are counted beside the result.

CDR-L1	CDR-L2	CDR-L3	apparent Kd	seen in	signal with controls
EGFSLRYYYAN	GKNARPS	SSRDSIGFQVF	2.5 µM	2/3	0/9
EGDVLRYYYAN	GKSNRPS	SSFDSSGFQVF	no signal	0/3	2/9
EGDSDRYYYAN	GKNNMPS	SSRQSSGFQVF	110 µM	3/3	3/9
EGLSLRYYYAN	GKNNRPS	SSRASTGFQVF	5.1 µM	2/3	2/9
EGVSLRYYYAN	WKNNRPS	SSRDSSMFQVF	2.3 µM	2/3	1/9
EGDSTRYYYAS	GKNCRPS	SSRDSSGFQVF	no signal	0/3	2/9
EGDSLRYYYKN	GKNNRDS	SSRDSSGFIVF	no signal	0/3	0/9
EGRSLRYYRAN	GKNNRPS	SSRDSSGLQVF	43 µM	3/3	2/9
EGDSLRHYYAN	GKNNRPS	DSRDSSGFQTF	no signal	0/3	0/9
EGDSLRYYFAD	RKNNRPS	SSRDSSGFQVF	17 µM	1/3	3/9
EGDSLRYYYAT	GKNRRPS	SSRDSSGFQKF	21 µM	2/3	2/9
EGDSLRYYYAN	GKNNRPD	ESRDSSGFQVF	270 nM	3/3	2/9
EGDSLRYYYAD	GKNNRPS	SSRDKHGFQVF	1.1 µM	3/3	2/9
EGDSLRQYYAN	GKNNFPS	SQRDSSGFQVF	5.3 µM	1/3	1/9
EGDSLRYYYAN	GKNNRPS	SSTDSSGIQVH	240 nM	3/3	5/9
EGPSLRYYYAN	GKNNRPI	SSRDSSGFSVF	1.0 µM	3/3	1/9
EGDSLRMYYAD	GKWNRPS	SSRDSSGFQVF	9.5 µM	1/3	3/9
EGDSLRYYYRN	GKNNRPS	SSRDSNGFQVE	11 µM	3/3	6/9
EGDSLRYYYAP	GKNNRPP	SSRDSSGFQVF	860 nM	2/3	3/9
EGDSLRYAYAN	GMNNRPS	SSRDASGFQVF	9.9 nM	3/3	8/9
EGDSLKYYYPN	GKNNRPS	SSRDSSGFQVF	24 nM	3/3	4/9
EGCSLRYYYAN	GKNNRPS	SSSDSSGFQRF	21 µM	3/3	2/9
EGDSLNYYTQN	GKNNRPS	SSRDSSGFQVF	2.4 µM	2/3	1/9
ESDSLRYYYDN	GKNNRPS	SSRDSSGFQFF	32 µM	1/3	3/9
EGDSLRYYYAN	GKNNRPS	SSRDSKGFIVS	1.9 µM	1/3	1/9
EGDFLRYYYAN	GKNLRWS	SSRDSSGFQVF	23 µM	2/3	5/9
EMDSLRYYYAN	GKNNRPS	SSMDSSGFQVE	200 µM	1/3	2/9
EGDSLYYYYAF	GKDNRPS	SSRDSSGFQVF	3.3 µM	3/3	2/9
EGDSLRYNVAN	GKNNRPS	SSEDSSGFQVF	1.1 µM	2/3	3/9
EGDSLHYTYAN	GKNNRPS	SPRDSSGFQVF	34 µM	3/3	4/9
EGMSLRYHYAN	GKNNRRS	SSRDSSGFQVF	340 nM	3/3	2/9
EGDSLRYYYAN	GKNNRPS	YSIDSSGFQHF	1.6 µM	3/3	1/9
EKNSLRYYYAN	GKNNRPS	SMRDSSGFQVF	no signal	0/3	2/9
EPDSLRYYYAN	GQNNRVS	SSRDSSGFQVF	590 nM	3/3	3/9
EGDSLRYYYAD	GKNNRPS	SFRDSSGNQVF	1.5 µM	1/3	1/9
FGDSLRYYYAN	GKNNRPS	SLRDSSGFQVF	4.9 µM	3/3	4/9
EGQSLRYYYAN	GKNFRPS	SSRDSSGFLVF	610 nM	3/3	1/9
EGDSVRYYYAN	GKNNRPN	YSRDSSGFQVF	no signal	0/3	1/9
EHDSLRYYYAN	GYNNRPS	SSRDSSGFQVF	1.3 µM	3/3	6/9
EGDDLRYYRAN	GKNNRPS	SSRDSSGFQVN	670 nM	3/3	3/9
EGDSERYYYAN	GKNNRMS	SSRDSSYFQVF	no signal	0/3	3/9
EGDYLRYPYAN	GKNNRPD	SSRDSSGFQVF	440 nM	3/3	3/9
EGDSLRYYYAN	GKNLRPS	SKRDSSGFQIF	no signal	0/3	1/9
EGDSLRYYAAN	GKNNRPS	WSKDSSGFQVF	490 nM	3/3	4/9
EGDSSWYYYGN	GKNNRPS	SSRDSSGFQVF	2.9 µM	2/3	4/9
EGNSLTYYYAN	GKNNRPS	SSPDSSGFQVF	40 µM	2/3	1/9

The opening 6 entries, copied out:

| CDR-L1 | CDR-L2 | CDR-L3 | apparent Kd | seen in | signal with controls |
|---|---|---|---|---|---|
| EGFSLRYYYAN | GKNARPS | SSRDSIGFQVF | 2.5 µM | 2/3 | 0/9 |
| EGDVLRYYYAN | GKSNRPS | SSFDSSGFQVF | no signal | 0/3 | 2/9 |
| EGDSDRYYYAN | GKNNMPS | SSRQSSGFQVF | 110 µM | 3/3 | 3/9 |
| EGLSLRYYYAN | GKNNRPS | SSRASTGFQVF | 5.1 µM | 2/3 | 2/9 |
| EGVSLRYYYAN | WKNNRPS | SSRDSSMFQVF | 2.3 µM | 2/3 | 1/9 |
| EGDSTRYYYAS | GKNCRPS | SSRDSSGFQVF | no signal | 0/3 | 2/9 |

The measurements come from Engelhart et al. 2022 (doi:10.1038/s41597-022-01779-4) through the FLAb antibody collection.